Laboratory results as given in US9822179B2, “Recombinant TNF ligand family member polypeptides with antibody binding domain and uses therefor” (UNIVERSITAT STUTTGART, priority 2011, dated 2017).

How the values were obtained:
[1] = system: Huh-7 hepatocarcinoma cells; experiment: Caspase activation in Huh-7 cells; format: cell-based; conditions: combination with bortezomib
Excerpt: (§1) FIG. 14: In vitro tolerance of TRAIL fusion proteins to primary tissues. […] Asterisks indicate statistical significance.
(§2) Caspases were detected by immunoblotting using a rabbit polyclonal antibody against cleaved caspase-3 (Cell Signaling Technology). GAPDH as internal control was detected with a rabbit polyclonal antibody (Cell Signaling Technology). HRP-conjugated secondary antibodies (Zymed Laboratories, San Fransisco, Calif., USA) and ECL were used for visualization.
(§3) Blood samples were taken from the tail after 4 h and 24 h and incubated on ice. Clotted blood was centrifuged (10 000 g, 10 min, 4° C.) and serum samples were stored at −80° C. Activity of alanine aminotransaminase was determined by an enzymatic assay (BIOO Scientific, Austin, Tex., USA). To determine caspase-3 activity in the liver tissue, mice were sacrificed after 24 h (positive control after 5 h) and liver biopsies were taken. Homogenates were prepared in lysis buffer (200 mM NaCl, 20 mM Tris, 1% NP-40, pH 7.4). 10 μg of protein were analyzed by conversion of the fluorogenic substrate Ac-DMQD-AMC (Enzo Life Sciences). Caspase activity in PHH and Huh-7 cells was determined as published by Seidel et al. (Hepatology 2005, 42:113-120).

[2] = system: EGFR low/negative HepG2 cells; experiment: Target-independent induction of cell death, HepG2, crystal violet; format: cell-based
Method: (§4) Cell viability was determined using crystal violet staining. Results from four independent experiments are shown (mean±S.E.M.). (B) Jurkat cells (1×10^5/well) were used for a similar experiment as described in (A). Jurkat cells were not sensitized. Results from three independent experiments are shown (mean±S.E.M.). Viability of Jurkat cells was determined using the MTT assay.
(§5) As a positive control, cells were killed with 0.25% Triton X-100. Cell death assays with Huh-7 and HepG2 cells were performed in the absence (FIG. 6, Jurkat cells) or presence of Bortezomib (FIG. 7, Huh-7: 250 ng/ml, FIG. 6, HepG2: 500 ng/ml, FIG. 18, Huh-7: 250 ng/ml), Selleck Chemicals, Houston, Tex.). Bortezomib was added 30 min prior incubation with the proapoptotic ligands to sensitize cells for the induction of cell death (FIGS. 6, 7). Alternatively, cells were preincubated for 30 min with the indicated concentrations of TRAIL fusion proteins followed by addition of serial dilutions of Bortezomib (FIG. 8). TRAIL only treated cells are shown in each panel for the applied TRAIL concentration (Bortezomib 0 ng/ml) (FIG. 8). After 16 h incubation, cell viability was determined either by crystal violet staining (Huh-7, HepG2) or the MTT method (Jurkat) (Wuest et al., 2002). In the latter case a lysis buffer consisting of 15% SDS in DMF/H2O (1:1), pH 4.5 (with […]) acetic acid) was used.

[3] = Pharmacokinetics in CD1 mice, 25 μg i.v., ELISA of serum samples; format: in vivo
Method: 25 μg of protein were injected i.v. in CD1 mice and serum samples were taken at the depicted time points followed by detection of scTRAIL molecules via ELISA.
To this end, 25 μg of fusion proteins were injected i.v. in CD1 mice and serum samples were analyzed at certain time points after injection by ELISA assay (FIG. 19).

EGFR+ Huh-7 cells = experiment: Binding of scTRAIL fusion proteins to Huh-7 cells, flow cytometry with competition; conditions: 2 μg/ml fusion protein
Method: (§6) “scFv” represents an anti-EGFR specific antibody fragment used for competition.
(§7) 5×10^5 cells were suspended in PBA buffer (PBS, 0.025% BSA, 0.02% sodium azide) and incubated for 1 h at 4° C. with the indicated scTRAIL fusion proteins (2 μg/ml). After washing the cells three times with PBA buffer, bound fusion proteins were detected by anti-human TRAIL mAb MAB687 (2.5 μg/ml, R&D Systems) and fluorescein isothiocyanate-labelled rabbit anti-mouse IgG Ab (1:200, Sigma-Aldrich), followed by three washing steps with PBA each. […] Expression of TRAIL receptors was detected by anti-TRAIL R1 mAb MAB347 and anti-TRAIL R2 mAb MAB6311 (4 μg/ml each, R&D Systems) in conjunction with anti-mouse IgG-FITC. EGFR expression was detected by a phycoerythrin-labelled anti-human EGFR mAb sc-101 (4 μg/ml, Santa Cruz Biotech., Santa Cruz, Calif.) (see FIG. 4).

Colo205 cells = experiment: Growth of Colo205 cells over four days, MTT; format: cell-based; conditions: presence of neutralizing anti-TRAIL antibodies (mAb 2E5)
Method: After 16 h, cell viability was determined using MTT staining (Colo 205) or crystal violet staining (Huh-7) and data were normalized using bortezomib-treated cells as control (mean SEM, n=3). (B) 1×10^4 Colo205 cells per well were grown in 96-well plates using medium with 0.1% FCS. […] (C) 1×10^4 Huh-7 cells per well were grown in 96-well plates and treated with 20 ng/ml bortezomib or with a combination of bortezomib and 10 μM zVADfmk.

[4] = Pharmacokinetics after iv dose of 100 μg/animal; format: in vivo; conditions: iv dose of 100 μg/animal
Method: Dashed line indicates upper normal level of ALT (35-50 U/L). (B) Mice were sacrificed after 24 h except for pos. control (animals treated with an aggregated FasL fusion protein show phenotypic signs of severe systemic toxicity after 2-4 hrs and die after ˜5 hrs, samples were taken after 4 hrs) and liver biopsies were taken for determination of caspase-3 activity using a specific AMC-coupled peptide substrate.

[5] = system: primary human hepatocytes (PHH); experiment: Caspase activation in primary human hepatocytes; format: cell-based; conditions: combination with bortezomib
Excerpt: as §1, §2, §3

Jurkat cells = experiment: Target-independent induction of cell death, Jurkat, MTT assay; format: cell-based; conditions: not sensitized; SEQ ID NO: 102 compared to KillerTRAIL
Method: as §4, §5

Colo205 xenograft tumor = Colo205 xenograft tumor model; conditions: for cases with macroscopically undetectable tumors: n=12 tumors/group
[6] = system: EGFR low/neg. HepG2 cells; experiment: Binding of scTRAIL fusion proteins to HepG2 cells, flow cytometry with competition; conditions: 2 μg/ml fusion protein
Method: as §6, §7

[7] = system: Huh-7 hepatocellular carcinoma cells; experiment: Cell death in Huh-7 cells, constant protein concentration, serial dilutions of Bortezomib; format: cell-based
Method: FIG. 8: EGFR-directed induction of cell death in Huh-7 hepatocellular carcinoma cells as in FIG. 7 with the exception that constant concentrations of the test proteins were used for preincubation (30 min), followed by addition of serial dilutions of Bortezomib. Control: Bortezomib alone. Results from three independent experiments are shown (mean±S.E.M.).
as §5

[8] = protein concentration of 0.05 nM

B1: SEQ ID NO: 102: EGFR-specific VH-VL-scTRAIL fusion protein with linker L shortened to GGGGS; divalent, dimeric TRAIL fusion protein (protein)
chain: MDWTWRVFCLLAVAPGAHSLEASDYKDDDDKGAEVQLVESGGGLVQPGGSLRLSCAASGFSLTNYGVHWVRQAPGKGLEWLGVIWSGGNTDYNTPFTSRFTISRDNSKNTLYLQMNSLRAEDTAVYYCARALTYYDYEFAYWGQGTTVTVSSGGGGSDIQLTQSPSFLSASVGDRVTITCRASQSIGTNIHWYQQKPGKAPKLLIKYASESISGVPSRFSGSGSGTEFTLTISSLQPEDFATYYCQQNNNWPTTFGAGTKLEIKRAAAEFTRGTSEETISTVQEKQQNISPLVRERGPQRVAAHITGTRGRSNTLSSPNSKNEKALGRKINSWESSRSGHSFLSNLHLRNGELVIHEKGFYYIYSQTYFRFQEEIKENTKNDKQMVQYIYKYTSYPDPILLMKSARNSCWSKDAEYGLYSIYQGGIFELKENDRIFVSVTNEHLIDMDHEASFFGAFLVGGGGSGGGSTSEETISTVQEKQQNISPLVRERGPQRVAAHITGTRGRSNTLSSPNSKNEKALGRKINSWESSRSGHSFLSNLHLRNGELVIHEKGFYYIYSQTYFRFQEEIKENTKNDKQMVQYIYKYTSYPDPILLMKSARNSCWSKDAEYGLYSIYQGGIFELKENDRIFVSVTNEHLIDMDHEASFFGAFLVGGGGSGGGSTSEETISTVQEKQQNISPLVRERGPQRVAAHITGTRGRSNTLSSPNSKNEKALGRKINSWESSRSGHSFLSNLHLRNGELVIHEKGFYYIYSQTYFRFQEEIKENTKNDKQMVQYIYKYTSYPDPILLMKSARNSCWSKDAEYGLYSIYQGGIFELKENDRIFVSVTNEHLIDMDHEASFFGAFLVG
modifications: VH-VL(EGFR)-scTRAIL fusion protein
In the case of B1, the “cleaved caspase-3 by immunoblot” value [1] is reported as “robust caspase processing”, the “influence of excess Cetuximab on apoptosis inducing activity” value ([2]; 70 nM Cetuximab, at least 7-fold excess) is reported as “not influenced” and the “increase of bioactivity compared to SEQ ID NO: 96 or SEQ ID NO 97” value ([2]; on all cell lines analysed (target-negative HepG2, Jurkat)) is reported as “approximately tenfold”. The “in vivo serum half-life” value [3] was “about 3 hours”, the “binding to Huh-7 cells, competition by excess of anti-EGFR specific antibody fragment” value (EGFR+ Huh-7 cells) was “partially blockable” and the “growth inhibition when apoptosis is prevented” value (Colo205 cells) was “only a marginal growth inhibition”. For the same molecule, the Tα1/2 [4] was 2 h, the Tβ1/2 [4] was 3 h and the “plasma conc at t=24 h” value [4] was 100 ng/mL. The “cleaved caspase-3 by immunoblot” value [5] was “no detectable caspase activation”, the “apoptosis-inducing activity on Jurkat cells” value (Jurkat cells) was “higher apoptosis-inducing activity” and the “cases with macroscopically undetectable tumors” value (Colo205 xenograft tumor; 0.45 nmol i.p. x 8, +bortezomib) was 11/12. For the same molecule, the “cases with macroscopically undetectable tumors” value (Colo205 xenograft tumor; 0.45 nmol i.p. x 8, w/o bortezomib) was 9/12, the “tumor size and survival” value (Colo205 xenograft tumor; 8 daily i.p. injections of 0.45 nmol, with or without bortezomib) was “strong reduction of tumor size and prolonged survival in all animals” and the “binding to HepG2 cells, competition by anti-EGFR huC225” value [6] was “weaker and non-blockable binding”. The “activity compared to other fusion proteins” value ([7]; 0.01 nM of fusion proteins) was “Superior activity”, the “bioactivity compared to SEQ ID NO: 96” value [7, 8] was “higher bioactivity compared to SEQ ID NO: 96” and the “synergy with Bortezomib” value [7, 8] was “able to synergize with Bortezomib”. For the same molecule, the “induction of apoptosis when sensitized with Bortezomib” value ([7]; protein concentration of 1 nM and above) was “nearly equally efficient in induction of complete apoptosis”.
